Source: PubChem BioAssay (NCI)
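Five concentrations, 48 hours, 96-well plates. TGI: total growth inhibition.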

Experiments:
Experiment in all cases: NCI anticancer screen, dose series, 48 h
786-0 renal = test system: 786-0 renal
A498 renal = test system: A498 renal
A549 NSCLC = test system: A549 NSCLC
ACHN renal = test system: ACHN renal
CAKI-1 renal = test system: CAKI-1 renal
CCRF-CEM leukemia = test system: CCRF-CEM leukemia
COLO 205 colon = test system: COLO 205 colon
DU-145 prostate = test system: DU-145 prostate
EKVX NSCLC = test system: EKVX NSCLC
HCC-2998 colon = test system: HCC-2998 colon
HCT-116 colon = test system: HCT-116 colon
HCT-15 colon = test system: HCT-15 colon
HL-60(TB) leukemia = test system: HL-60(TB) leukemia
HOP-62 NSCLC = test system: HOP-62 NSCLC
HOP-92 NSCLC = test system: HOP-92 NSCLC
HS 578T breast = test system: HS 578T breast
HT29 colon = test system: HT29 colon
IGROV1 ovarian = test system: IGROV1 ovarian
K-562 leukemia = test system: K-562 leukemia
KM12 colon = test system: KM12 colon
LOX IMVI melanoma = test system: LOX IMVI melanoma
M14 melanoma = test system: M14 melanoma
MALME-3M melanoma = test system: MALME-3M melanoma
MCF7 breast = test system: MCF7 breast
MDA-MB-231 breast = test system: MDA-MB-231 breast
MDA-MB-435 = test system: MDA-MB-435
MDA-N = test system: MDA-N
MOLT-4 leukemia = test system: MOLT-4 leukemia
NCI-H226 lung = test system: NCI-H226 lung
NCI-H23 lung = test system: NCI-H23 lung
NCI-H460 lung = test system: NCI-H460 lung
NCI-H522 lung = test system: NCI-H522 lung
NCI/ADR-RES ovarian = test system: NCI/ADR-RES ovarian
OVCAR-3 ovarian = test system: OVCAR-3 ovarian
OVCAR-4 ovarian = test system: OVCAR-4 ovarian
OVCAR-5 ovarian = test system: OVCAR-5 ovarian
OVCAR-8 ovarian = test system: OVCAR-8 ovarian
PC-3 prostate = test system: PC-3 prostate
RPMI-8226 leukemia = test system: RPMI-8226 leukemia
RXF 393 renal = test system: RXF 393 renal
SF-268 CNS = test system: SF-268 CNS
SF-295 CNS = test system: SF-295 CNS
SF-539 CNS = test system: SF-539 CNS
SK-MEL-2 melanoma = test system: SK-MEL-2 melanoma
SK-MEL-28 melanoma = test system: SK-MEL-28 melanoma
SK-MEL-5 melanoma = test system: SK-MEL-5 melanoma
SK-OV-3 ovarian = test system: SK-OV-3 ovarian
SN12C renal = test system: SN12C renal
SNB-19 CNS = test system: SNB-19 CNS
SNB-75 CNS = test system: SNB-75 CNS
SR leukemia = test system: SR leukemia
SW-620 colon = test system: SW-620 colon
T-47D breast = test system: T-47D breast
TK-10 renal = test system: TK-10 renal
U251 CNS = test system: U251 CNS
UACC-257 melanoma = test system: UACC-257 melanoma
UACC-62 melanoma = test system: UACC-62 melanoma
UO-31 renal = test system: UO-31 renal

Measured: TGI

COc1ccc2c3c1O[C@H]1C4(OC)CCC5(CC4C(C)(C)O)[C@@H](C2)N(C)CC[C@]315 (stereo partly drawn)
> 100 µM: 786-0 renal | A498 renal | A549 NSCLC | ACHN renal | CAKI-1 renal | CCRF-CEM leukemia | COLO 205 colon | DU-145 prostate | EKVX NSCLC | HCC-2998 colon | HCT-116 colon | HCT-15 colon | HL-60(TB) leukemia | HOP-62 NSCLC | HOP-92 NSCLC | HS 578T breast | HT29 colon | IGROV1 ovarian | K-562 leukemia | KM12 colon | LOX IMVI melanoma | M14 melanoma | MALME-3M melanoma | MCF7 breast | MDA-MB-231 breast | MDA-MB-435 | MDA-N | MOLT-4 leukemia | NCI-H226 lung | NCI-H23 lung | NCI-H460 lung | NCI-H522 lung | NCI/ADR-RES ovarian | OVCAR-3 ovarian | OVCAR-4 ovarian | OVCAR-5 ovarian | OVCAR-8 ovarian | PC-3 prostate | RPMI-8226 leukemia | RXF 393 renal | SF-268 CNS | SF-295 CNS | SF-539 CNS | SK-MEL-2 melanoma | SK-MEL-28 melanoma | SK-MEL-5 melanoma | SK-OV-3 ovarian | SN12C renal | SNB-19 CNS | SNB-75 CNS | SR leukemia | SW-620 colon | T-47D breast | TK-10 renal | U251 CNS | UACC-257 melanoma | UACC-62 melanoma | UO-31 renal
